Among the data in ChEMBL document CHEMBL5154715, “Phenolic Lipids Derived from Cashew Nut Shell Liquid to Treat Metabolic Diseases” (J Med Chem, 2022) are ΔTm and Emax values, retold here.

Chains of the proteins cited; added tags and fusions are not shown. Lines headed by an entry give the natural chain unless they say otherwise; changes in a name come on top.
UniProt P37231: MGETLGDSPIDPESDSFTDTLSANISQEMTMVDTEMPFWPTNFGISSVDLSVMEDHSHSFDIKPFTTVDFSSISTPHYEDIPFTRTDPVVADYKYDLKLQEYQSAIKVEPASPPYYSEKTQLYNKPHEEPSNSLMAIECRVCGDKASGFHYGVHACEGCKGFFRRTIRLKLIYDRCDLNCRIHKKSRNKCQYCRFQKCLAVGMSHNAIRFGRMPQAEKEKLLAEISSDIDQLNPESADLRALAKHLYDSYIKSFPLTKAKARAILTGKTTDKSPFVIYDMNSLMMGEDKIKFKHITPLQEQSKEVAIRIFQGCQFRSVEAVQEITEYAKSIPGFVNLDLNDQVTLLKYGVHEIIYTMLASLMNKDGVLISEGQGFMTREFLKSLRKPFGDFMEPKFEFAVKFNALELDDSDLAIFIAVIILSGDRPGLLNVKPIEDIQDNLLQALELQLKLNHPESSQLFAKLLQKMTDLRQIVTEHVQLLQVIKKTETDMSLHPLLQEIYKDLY

Assay [1] deals with T1, Peroxisome proliferator-activated receptor alpha (Homo sapiens) (UniProt Q07869).
T1 sequence (whole entry): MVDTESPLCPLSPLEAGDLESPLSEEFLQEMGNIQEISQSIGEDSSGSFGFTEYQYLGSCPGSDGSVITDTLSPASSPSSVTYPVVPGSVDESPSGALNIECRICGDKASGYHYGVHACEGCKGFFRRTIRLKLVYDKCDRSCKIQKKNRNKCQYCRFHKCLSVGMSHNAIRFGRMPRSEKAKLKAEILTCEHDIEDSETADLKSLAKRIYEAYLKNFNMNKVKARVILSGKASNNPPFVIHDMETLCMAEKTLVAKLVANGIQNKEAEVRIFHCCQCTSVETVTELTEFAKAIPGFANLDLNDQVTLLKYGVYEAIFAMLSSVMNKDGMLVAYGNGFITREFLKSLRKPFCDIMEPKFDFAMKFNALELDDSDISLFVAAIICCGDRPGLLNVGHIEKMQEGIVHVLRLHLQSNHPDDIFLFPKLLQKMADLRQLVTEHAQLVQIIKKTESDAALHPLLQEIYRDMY
The experiment in a line: Stabilization of human PPARalpha LBD assessed as change in melting temperature at 25 uM by thermal shift assay. The essentials:
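Purified hPPAR LBD at 1 mg/mL (∼25 μM) with ligand (α-LBD at 25 μM; γ- and δ-LBD at 50 μM). Static light scattering at 473 nm from 25 to 70 °C in 0.5 °C steps, 1 °C/min. Tm from four-parameter fit; ΔTm relative to DMSO; mean ± SEM, N = 3.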

In assay [2] the target is T1, Peroxisome proliferator-activated receptor alpha (Homo sapiens). The note with it: dose 50.0 µM.
For assay [3], the target named is Peroxisome proliferator-activated receptor gamma (Homo sapiens, UniProt P37231). The experiment in a line: Agonist activity at human PPARgamma expressed in HEK293 cells assessed as maximal activity by luciferase/beta-galactosidase reporter gene assay relative to rosiglitazone. It is filed as cell-based. The note with it: filed as agonist. The procedure, abridged: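 HEK293 cells in charcoal-stripped FBS, calcium phosphate co-transfected with GAL4-hPPAR LBD fusion, UAS-luciferase and β-galactosidase. Ligand added 6–8 h post transfection, full dose–response, harvested 14–16 h later. Luciferase normalized to β-galactosidase. Emax expressed relative to positive control (GW7647 for α, rosiglitazone for γ) set to 100%.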
(In a reporter assay the amount or activity of a reporter protein is the signal.)

Turning to `CC(C)(Sc1ccc(CCN(CCCCC2CCCCC2)C(=O)NC2CCCCC2)cc1)C(=O)O`, the shift in melting temperature (ΔTm) in assay [1] and in assay [2] was 5.2 °C in each case.

Take `CCCCCCCCCC(=O)O` [DECANOIC ACID]: the Emax in assay [3] is greater than 90%.
